According to US20180057595A1 (CELLDEX THERAPEUTICS, published 2018):
Substitutions are numbered along the chain they refer to. Blank lines part the entries; values can stand above or below the binder they belong to.

What was measured:
[1] = target: T1, human MET, cell-surface expressed (human, UniProt P08581 25-1390); test: FACS competition on A549 cells; competitor Alexa-647-labelled Ab235
T1 construct: whole, on cells; Used for all assays on cells that carry wild-type human MET; the cell line is named under assay or readout; also called c-Met; hMET

[2] = target: T2, human MET-ECD with a His tag (MET-ECD-His) (human, UniProt P08581 25-932); test: ELISA, immobilised His-tagged MET ECD; displacement of biotinylated HGF (0.3 nM)
T2 construct: The ELISA sections speak of MET-ECD, MET-ECD-His or His-tagged MET extracellular domain; also called hu-MET-ECD; human cMET ECD

[3] = target: T2, human MET-ECD with a His tag …; test: ELISA on recombinant MET-ECD
[4] = target: T1, human MET, cell-surface expressed; test: FACS on A549 cells, cell surface MET
[5] = target: MET without the 47 amino acids encoded by exon 14 (H596 cells) (human, UniProt P08581 25-1390); test: cell-based or functional assay
[6] = target: T1, human MET, cell-surface expressed; test: cell-based or functional assay
[7] = target: T2, human MET-ECD with a His tag …; test: ELISA on coated human MET-ECD
Protocol: To measure antibody binding by ELISA, 10 μg of human, murine or chimeric MET-ECD was coated onto 96-well plates (Costar). Serial dilutions of antibodies were added to the plates and incubated at room temperature for 1 hr prior to the addition of HRP-conjugated secondary antibody. Luminescence was measured with BioTek SYNERGY™ HT plate reader, and binding EC₅₀ values were determined using […] PRISM® software.

[8] = target: T1, human MET, cell-surface expressed; test: FACS competition on A549 cells; competitor Ab237C
Protocol: The binding of anti-MET antibodies to cell surface MET was analyzed by competition FACS analysis using A549 NSCLC cells (ATCC cat. no. CCL-185). […] A total of 3×10⁵ A549 NSCLC cells were added per dilution of antibody and incubated on ice for 1 hour. Cells were washed and a 1:100 dilution of PE-labeled goat anti-rat IgG antibody (BioLegend cat. no. 405406) in FACS buffer was added before incubation on ice for 1 hour. […] The geometric mean fluorescence intensity was plotted against antibody concentration. The IC₅₀ of each of the test antibodies was calculated relative to the IC₅₀ of the reference antibody.

[9] = target: T2, human MET-ECD with a His tag …; test: competition ELISA on immobilised MET-ECD; competitor Ab237C

IC50 [1]: ~3 nM
IC50 [2]: ~2 nM
EC50 [3]: 1.2 nM
EC50 [4]: 1.4 nM
IC50, tumor cell proliferation with HGF, H596 cells [5]: ~0.8 nM
IC50, HGF-induced DU145 cell scatter [6]: ~0.48 nM
IC50, HGF-induced phosphorylation of MET Tyr1234/Tyr1235, ELISA, A549 cells [6]: ~0.217 nM
IC50, tumor cell proliferation with HGF, A549 cells [6]: ~6.6 nM
IC50, tumor cell proliferation with HGF, U87MG cells [6]: ~25 nM
EC50 [7]: 0.13 nM
B1: Ab235 (antibody, mouse IgG1, V domains shown)
VH: QVQLQQSGAELMKPGASVKISCKATGYTFSNYWIEWVKQRPGHGLEWIGEILPGSDYTKYNEKFKGKATFTADTSSNTAYMQLSSLTSEDSAVYYCARPSTIPPDCWGQGTTLTVSA
VL: QIVLTQSPAIMSTSPGEKVTMTCSASSSVNYMFWYQQKAGSSPRLLIYDTFNLASGVPVRFSGSGSGTSYSLTISRMEAEDAATYYCQQWSIYPYTFGGGTKLEIKR
notes: Mouse IgG1, kappa

IC50 [1]: ~1 nM
IC50 [2]: ~0.5 nM
EC50 [3]: 0.45 nM
EC50 [4]: 0.5 nM
IC50, tumor cell proliferation with HGF, H596 cells [5]: ~0.6 nM
IC50, HGF-induced DU145 cell scatter [6]: ~0.08 nM
IC50, HGF-induced phosphorylation of MET Tyr1234/Tyr1235, ELISA, A549 cells [6]: ~0.076 nM
IC50, MET Tyr1234/Tyr1235 phosphorylation, ELISA, U87MG cells [6]: ~0.047 nM
IC50, tumor cell proliferation with HGF, A549 cells [6]: ~6.3 nM
IC50, tumor cell proliferation with HGF, U87MG cells [6]: ~9 nM
EC50 [7]: 0.05 nM
B2: Ab236 (antibody, mouse IgG1, V domains shown)
VH: B1 VH with V2A, T28I, N31S, Y57F, T58I, N61S, S85N, I102V
VL: B1 VL with T13A, N30S, A39P, F51S, N52D, I92N
notes: Mouse IgG1, kappa

IC50, MET Tyr1234/Tyr1235 phosphorylation, ELISA, U87MG cells [6]: ~0.071 nM
B3: Ab235C (antibody, human IgG1, V domains shown)
VH: B1 VH
VL: B1 VL

IC50 [1]: ~1 nM
IC50 [2]: ~0.4 nM
EC50 [3]: 0.7 nM
EC50 [4]: 0.3 nM
IC50, tumor cell proliferation with HGF, H596 cells [5]: ~0.2 nM
IC50, HGF-induced DU145 cell scatter [6]: ~1.4 nM
IC50, HGF-induced phosphorylation of MET Tyr1234/Tyr1235, ELISA, A549 cells [6]: ~0.093 nM
IC50, MET Tyr1234/Tyr1235 phosphorylation, ELISA, U87MG cells [6]: ~0.029 nM
IC50, tumor cell proliferation with HGF, A549 cells [6]: ~4.8 nM
IC50, tumor cell proliferation with HGF, U87MG cells [6]: ~25 nM
EC50 [7]: 0.09 nM
B4: Ab238 (antibody, rat IgG2a, V domains shown)
VH: QVTLKESGPGILQPSQTLSLTCTFSGFSLSTYGMGVAWIRQPSGKDLEWLANIWWDDVNYSNPSLKNRLTISKDTSNNQVFLQITNVDTAETATYYCARIGTSHIVDAWGQGASVTVSA
VL: DIRMTQSPASLSASLGETVNIECLASEDIYSDLAWYQQKPGKSPQLLIYNANTLQNGVPSVFSGSGSGTQYSLKINNLHSEDVATYFCQQYNNYPPTFGGGTKLEIKR
notes: Rat IgG2a, kappa

relative IC50 (against Ab237C) [8]: ~1.17 relative to IC50 of Ab237C
IC50 relative to the IC50 of Ab237C [9]: ~1.04 relative to IC50 of Ab237C
B5: Ab248 (antibody, human IgG1, V domains shown)
VH: EVQLVESGGGLVQPGGSLKLSCAASGFTFSDSYMAWVRQAPGKGLEWVASISSDGGGTYYRDSVKGRFTISRDNAKSSLYLQMNSLRTEDTATYYCTTEGIYTTDYYPYCFNYWGQGVMVTVSS
VL: DIQMTQSPSSLSASVGDRVTITCLASADIHSNLAWYQQKPGKAPKLLIYYGNNLNDGVPSRFSGSGSGTDYTLTISSLQPEDVAIYFCQQSYDSPPTFGQGTKLEIKR
notes: Composite human (humanized) antibody, human IgG1, kappa

IC50 [1]: ~0.5 nM
IC50 [2]: ~0.5 nM
EC50 [3]: 0.14 nM
EC50 [4]: 0.4 nM
IC50, tumor cell proliferation with HGF, H596 cells [5]: ~0.08 nM
IC50, HGF-induced DU145 cell scatter [6]: ~0.08 nM
IC50, HGF-induced phosphorylation of MET Tyr1234/Tyr1235, ELISA, A549 cells [6]: ~0.04 nM
IC50, MET Tyr1234/Tyr1235 phosphorylation, ELISA, U87MG cells [6]: ~0.043 nM
IC50, tumor cell proliferation with HGF, A549 cells [6]: ~1.7 nM
IC50, tumor cell proliferation with HGF, U87MG cells [6]: ~5.5 nM
EC50 [7]: 0.02 nM
B6: Ab237 (antibody, rat IgG2a, V domains shown)
VH: B5 VH with G16R, G42T, T69S, N84D, T88S, Q116H, S124A
VL: DIQMTQSPGSLSASLGETVTIECLASADIHSNLAWYQQKPGNSPQLLIYYGNNLNDGVPSRFSGSGSGTQYSLKINSLQSEDVSIYFCQQSYDSPPTFGAGTKLEIKR
notes: Rat IgG2a, kappa

relative IC50 (against Ab237C), HGF-induced MET phosphorylation, ELISA [6]: ~0.23 relative to IC50 of Ab237C
relative IC50 (against Ab237C) [8]: ~0.86 relative to IC50 of Ab237C
IC50 relative to the IC50 of Ab237C [9]: ~1.09 relative to IC50 of Ab237C
B7: Ab245 (antibody, human IgG1, V domains shown)
VH: B5 VH with N84D
VL: B5 VL with Y71F, I85T
notes: as for B5

relative IC50 (against Ab237C) [8]: ~1.03 relative to IC50 of Ab237C
IC50 relative to the IC50 of Ab237C [9]: ~0.82 relative to IC50 of Ab237C
B8: Ab242 (antibody, human IgG1, V domains shown)
VH: B5 VH with N84D
VL: B5 VL with S65F, S67F, P80S
notes: as for B5

relative IC50 (against Ab237C) [8]: ~0.99 relative to IC50 of Ab237C
IC50 relative to the IC50 of Ab237C [9]: ~0.98 relative to IC50 of Ab237C
B9: Ab251 (antibody, human IgG1, V domains shown)
VH: B5 VH with S77N, V118T
VL: B5 VL with K45Q, T74K, S76N, P80S
notes: as for B5

relative IC50 (against Ab237C), HGF-induced MET phosphorylation, ELISA [6]: ~0.23 relative to IC50 of Ab237C
relative IC50 (against Ab237C) [8]: ~0.78 relative to IC50 of Ab237C
IC50 relative to the IC50 of Ab237C [9]: ~0.8 relative to IC50 of Ab237C
B10: Ab254 (antibody, human IgG1, V domains shown)
VH: B5 VH with S77N, V118T
VL: B5 VL with Y71F
notes: as for B5

relative IC50 (against Ab237C), HGF-induced MET phosphorylation, ELISA [6]: ~0.47 relative to IC50 of Ab237C
relative IC50 (against Ab237C) [8]: ~0.7 relative to IC50 of Ab237C
IC50 relative to the IC50 of Ab237C [9]: ~1 relative to IC50 of Ab237C
B11: Ab249 (antibody, human IgG1, V domains shown)
VH: B5 VH
VL: B5 VL with Y71F
notes: as for B5

relative IC50 (against Ab237C) [8]: ~1.07 relative to IC50 of Ab237C
IC50 relative to the IC50 of Ab237C [9]: ~0.92 relative to IC50 of Ab237C
B12: Ab243 (antibody, human IgG1, V domains shown)
VH: B5 VH with N84D
VL: B5 VL
notes: as for B5

relative IC50 (against Ab237C), HGF-induced MET phosphorylation, ELISA [6]: ~0.25 relative to IC50 of Ab237C
relative IC50 (against Ab237C) [8]: ~0.72 relative to IC50 of Ab237C
IC50 relative to the IC50 of Ab237C [9]: ~0.9 relative to IC50 of Ab237C
B13: Ab255 (antibody, human IgG1, V domains shown)
VH: B5 VH with S77N, V118T
VL: B5 VL with Y71F, I85T
notes: as for B5

relative IC50 (against Ab237C), HGF-induced MET phosphorylation, ELISA [6]: ~0.44 relative to IC50 of Ab237C
relative IC50 (against Ab237C) [8]: ~0.93 relative to IC50 of Ab237C
IC50 relative to the IC50 of Ab237C [9]: ~1.07 relative to IC50 of Ab237C
B14: Ab244 (antibody, human IgG1, V domains shown)
VH: B5 VH with N84D
VL: B5 VL with Y71F
notes: as for B5

relative IC50 (against Ab237C), HGF-induced MET phosphorylation, ELISA [6]: ~0.21 relative to IC50 of Ab237C
relative IC50 (against Ab237C) [8]: ~0.86 relative to IC50 of Ab237C
IC50 relative to the IC50 of Ab237C [9]: ~1.13 relative to IC50 of Ab237C
B15: Ab250 (antibody, human IgG1, V domains shown)
VH: B5 VH
VL: B5 VL with Y71F, I85T
notes: as for B5

relative IC50 (against Ab237C) [8]: ~1.06 relative to IC50 of Ab237C
IC50 relative to the IC50 of Ab237C [9]: ~0.99 relative to IC50 of Ab237C
B16: Ab252 (antibody, human IgG1, V domains shown)
VH: B5 VH with S77N, V118T
VL: B5 VL with S65F, S67F, P80S
notes: as for B5

relative IC50 (against Ab237C) [8]: ~0.91 relative to IC50 of Ab237C
IC50 relative to the IC50 of Ab237C [9]: ~0.94 relative to IC50 of Ab237C
B17: Ab253 (antibody, human IgG1, V domains shown)
VH: B5 VH with S77N, V118T
VL: B5 VL
notes: as for B5

relative IC50 (against Ab237C) [8]: ~1.15 relative to IC50 of Ab237C
IC50 relative to the IC50 of Ab237C [9]: ~0.81 relative to IC50 of Ab237C
B18: Ab246 (antibody, human IgG1, V domains shown)
VH: B5 VH
VL: B5 VL with K45Q, T74K, S76N, P80S
notes: as for B5

relative IC50 (against Ab237C) [8]: ~1.01 relative to IC50 of Ab237C
IC50 relative to the IC50 of Ab237C [9]: ~0.82 relative to IC50 of Ab237C
B19: Ab247 (antibody, human IgG1, V domains shown)
VH: B5 VH
VL: B5 VL with S65F, S67F, P80S
notes: as for B5
